Only a part of the results on these compounds is given; other tests are left out.
Tests used:
[1] = fentanyl skin flux through cadaver skin (diffusion cells, 32° C., phosphate buffer pH 6.0 receiver)
[2] = in vitro dissolution of fentanyl base at 25° C.; conditions: 48 hours

CCC(=O)N(c1ccccc1)C1CCN(CCc2ccccc2)CC1
fentanyl base steady state flux, cadaver skin ([1]; Example 16, PIB reservoir/PDMS adhesive with Medifilm 428 or 827, 32° C., pH 6.0 receiver): 9.7 μg/cm^2 /hr
Steady-state skin flux ([1]; Example 17, as Example 16 without Medifilm structure layer): 17.5 μg/cm^2 /hr
increase of fentanyl skin flux by removal of the Medifilm layer ([1]; Example 17 vs Example 16): increased two-fold
total fentanyl base delivered ([1]; Example 22, 24 hr skin permeation study): 85%
fentanyl delivered from the composite ([1]; Example 23, after 24 hr): approximately 85%
Fentanyl skin flux from the nonocclusive system (steady-state) ([1]; Examples 20 and 21, acrylate reservoir, nonocclusive Medifilm 827 backing): 0.37 μg/cm^2 /hr
Fentanyl skin flux from the occlusive system ([1]; Examples 20 and 21, acrylate reservoir, occlusive polyester backing): 2.96 μg/cm^2 /hr
time up to which steady-state flux was maintained ([1]; Examples 20 and 21, nonocclusive system, flux 0.37 μg/cm^2 /hr): 72 h
correlation coefficient of square root time dependence of release ([2]; Example 16, 25° C.): 0.99
time dependence of cumulative fentanyl base released ([2]; Example 16, 25° C.): square root time dependent
correlation coefficient of square root time dependence of release ([2]; Example 22, 25° C.): 0.99
time dependence of cumulative fentanyl base released ([2]; Example 22, 25° C.): square root time dependent

Source: patent publication US5006342A, “Resilient transdermal drug delivery device” (Cygnus Corporation, priority 1989, dated 1991)
